The nature of this data set: in vivo. Particulars: ip, intraperitoneal. From the text:
Each compound was made up in KH buffer (280 Mosm) buffered to pH 7.4 with 5N NaOH. The final volume for each injection was 1 cc in rats in 0.5 cc in mice.

Read-outs that look alike come from different tables or passages of the source.

Usually LD50 stands for the dose expected to kill half of the subjects tested. For the molecule `COC(=N)CCCCC(=N)OC` [DMA, dimethyl adipimidate, reference compound], the median lethal dose (LD50) reads like this: (mouse, mice, read-out: LD50 (Lethal dose for 50% of the animals)) 750 mg/kg; (rat, rats) 700 mg/kg.

The record behind these values is US4048325A, “Low toxicity method of inhibiting sickling of sickle erythrocytes” (The United States of America as represented by the United …, priority 1976, dated 1977).
